The results in this text go back to article PMC7723054.

The list shows a part of the results.

What all share (experiment): FOREST: bead pull-down of RNA structure library v1, barcode microarray; U1A/LIN28A: 20 mM HEPES pH 7.5, 80 mM KCl, 20 mM NaCl, 10% glycerol, 2 mM DTT, 0.1 ug/uL BSA, 4 C; BG4/CIRBP/DHX36: 10 mM Tris-HCl pH 7.5, 100 mM KCl (or LiCl),; high values mean tight binding
In assay [1] the target is U1A (Homo sapiens, UniProt P09012).
Assay [2] has as its target T1, LIN28A (human?, UniProt Q9H9Z2 1-209).
T1 sequence: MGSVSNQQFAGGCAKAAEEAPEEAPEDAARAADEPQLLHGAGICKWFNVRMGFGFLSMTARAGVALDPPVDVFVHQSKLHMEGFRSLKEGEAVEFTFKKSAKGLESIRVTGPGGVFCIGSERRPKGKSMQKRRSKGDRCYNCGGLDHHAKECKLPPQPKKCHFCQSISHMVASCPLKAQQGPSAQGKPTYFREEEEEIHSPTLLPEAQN

Assay [3] has as its target T2, CIRBP (Homo sapiens, UniProt Q14011 1-172).
T2 sequence: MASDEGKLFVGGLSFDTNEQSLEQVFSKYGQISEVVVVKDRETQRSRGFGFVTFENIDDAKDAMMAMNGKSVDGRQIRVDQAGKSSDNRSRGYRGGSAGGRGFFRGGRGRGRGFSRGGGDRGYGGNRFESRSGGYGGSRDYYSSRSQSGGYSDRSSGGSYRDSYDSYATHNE

The target in assay [4] is T3, DHX36 (Homo sapiens, UniProt Q9H2U1 1-1008).
T3 sequence: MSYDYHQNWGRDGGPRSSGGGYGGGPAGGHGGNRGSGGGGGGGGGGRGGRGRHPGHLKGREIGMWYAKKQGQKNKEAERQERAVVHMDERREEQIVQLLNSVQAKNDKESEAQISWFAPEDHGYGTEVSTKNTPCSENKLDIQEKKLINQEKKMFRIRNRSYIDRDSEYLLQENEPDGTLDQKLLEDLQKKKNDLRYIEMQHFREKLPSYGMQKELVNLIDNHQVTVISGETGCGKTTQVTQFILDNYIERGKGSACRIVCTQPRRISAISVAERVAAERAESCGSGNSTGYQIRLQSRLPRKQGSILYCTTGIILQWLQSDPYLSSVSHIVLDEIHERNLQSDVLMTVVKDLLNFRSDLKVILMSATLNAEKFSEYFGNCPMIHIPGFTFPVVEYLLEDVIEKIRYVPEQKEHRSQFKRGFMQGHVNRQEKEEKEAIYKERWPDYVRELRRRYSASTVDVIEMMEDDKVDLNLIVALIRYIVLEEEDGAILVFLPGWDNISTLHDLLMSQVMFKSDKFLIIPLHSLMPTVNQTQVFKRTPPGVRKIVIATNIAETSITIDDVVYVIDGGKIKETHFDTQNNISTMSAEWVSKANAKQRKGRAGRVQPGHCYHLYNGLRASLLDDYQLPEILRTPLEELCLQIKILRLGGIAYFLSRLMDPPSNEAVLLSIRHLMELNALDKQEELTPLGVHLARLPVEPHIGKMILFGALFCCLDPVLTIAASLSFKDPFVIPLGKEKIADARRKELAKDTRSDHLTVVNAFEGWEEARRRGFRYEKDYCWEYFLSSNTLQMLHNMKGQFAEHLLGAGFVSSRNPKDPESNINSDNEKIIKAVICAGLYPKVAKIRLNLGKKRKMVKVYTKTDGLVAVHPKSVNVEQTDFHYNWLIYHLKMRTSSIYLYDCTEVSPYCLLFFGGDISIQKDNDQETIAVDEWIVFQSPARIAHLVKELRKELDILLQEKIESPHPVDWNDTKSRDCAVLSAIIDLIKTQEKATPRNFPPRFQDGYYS

B1: hsa-mir-1184-3_1184-2_1184-1 (structured_RNA)
RNA: GGGAAGCUGAUCUCGCGGAUUACUAGCGGGUGUACGAAGUUUCAGCACAGUGGCCACAUCUCCACGCUGAAGCUUCGUGCAC
In the case of B1, the binding signal was 1.09 z-score in assay [1], -0.0736 z-score in assay [2], -0.722 z-score in assay [3] and -0.403 z-score in assay [4].

B2: hsa-mir-1244-1_1244-4_1244-2_1244-3 (structured_RNA)
RNA: GGGAGUGCACAAUCCUAGUUGUCAACUGGGUGUACGAAGUUUCAGCUUGUGUAUGUACUUAGCUGUACUAUAGCUGAAGCUUCGUGCAC
For B2, the binding signal was 1.05 z-score in assay [1], -0.784 z-score in assay [2], -1.83 z-score in assay [3] and -1.26 z-score in assay [4].

B3: hsa-mir-34a (structured_RNA)
RNA: GGGACGGAGGGCUGUUUAUUAAGCCAACGGUGUACGAAGUUUCAGCGUUGUUGUGAGCAAUAGUAAGGAAGCAAUGCUGAAGCUUCGUGCAC
Regarding B3, the binding signal in assay [1] is 1.06 z-score; in assay [2], 1.94 z-score; in assay [3], 0.596 z-score; in assay [4], 0.922 z-score.

B4: hsa-mir-5692c-2 (structured_RNA)
RNA: GGGAGGUCCGUAGACACUCUACCACGUUGGUGUACGAAGUUUCAGCGAGUCCUAUUUAUUUUUAGGAUAUUAGGAAGCUGAAGCUUCGUGCAC
Turning to B4, the binding signal was 1.09 z-score in assay [1], -0.223 z-score in assay [2], -0.0922 z-score in assay [3] and -0.242 z-score in assay [4].

B5: hsa-mir-98 (structured_RNA)
RNA: GGGACUGAGCGUUACGUGAACUAUACCUGGUGUACGAAGUUUCAGCAUUGUUGUGGGGUAGGGAUAUUAGGCCCCAAUUAGAAGAUAACUAUGCUGAAGCUUCGUGCAC
With B5, the binding signal in assay [1] was determined as 1.1 z-score; in assay [2], 3.59 z-score; in assay [3] it was 2.71 z-score; in assay [4], 2.15 z-score.

B6: hsa-mir-6854 (structured_RNA)
RNA: GGGACAUCGCCCAUGACGAAUGAAUCCGGGUGUACGAAGUUUCAGCUGCUGAUGUCAUCAGUCAUAACUUCUGCGGCUGAAGCUUCGUGCAC
Take B6: the binding signal in assay [1] was 1.08 z-score; in assay [2] it was 0.16 z-score; in assay [3], 1.29 z-score; in assay [4] it was -0.406 z-score.

B7: hsa-mir-301a (structured_RNA)
RNA: GGGACCAUCGCAUCGUACGUAAAUCUGCGGUGUACGAAGUUUCAGCACUACUGUACUUUACAGCUAGCAGUGCUGAAGCUUCGUGCAC
Regarding B7, the binding signal in assay [1] was 1.05 z-score; in assay [2] it was 0.214 z-score; in assay [3], -0.179 z-score; in assay [4] it was 0.14 z-score.

B8: hsa-mir-4306 (structured_RNA)
RNA: GGGACGUAUGUAGAGGAUUACGCGCACAGGUGUACGAAGUUUCAGCUCCAGAGGCAUCCCUAACCCAGAAUCUUUUGACUGUCCUCUGGAGCUGAAGCUUCGUGCAC
With B8, the binding signal in assay [1] was 1.08 z-score; in assay [2], 0.487 z-score; in assay [3], -0.0225 z-score; in assay [4], 1.13 z-score.

B9: hsa-mir-4534 (structured_RNA)
RNA: GGGAAGAGAAUAAAUGCCGUAUACCGACGGUGUACGAAGUUUCAGCAGCCAAAAUCACCAGGGAGCUGAAGCUUCGUGCAC
For the molecule B9, the binding signal was 1.11 z-score in assay [1], -0.465 z-score in assay [2], -0.538 z-score in assay [3] and -0.574 z-score in assay [4].

B10: hsa-mir-6884 (structured_RNA)
RNA: GGGAACAUGACACUGUUCGCUGUGCGGAGGUGUACGAAGUUUCAGCGUUGGCUCAAGAAAGGGAGAUAGAUGGUAGCCCGCUGAAGCUUCGUGCAC
On to B10, for which the binding signal in assay [1] turned out to be 1.11 z-score; in assay [2] it was 2.51 z-score; in assay [3] it was 2.55 z-score; in assay [4], 2.49 z-score.

B11: hsa-mir-548h-5 (structured_RNA)
RNA: GGGACCUGUGUAGUGGCGAUGCCUUUUCGGUGUACGAAGUUUCAGCUGUCAUUACUUUUAACUGUAGCUGAAGCUUCGUGCAC
On to B11, for which the binding signal is 1.05 z-score in assay [1], -0.579 z-score in assay [2], -0.176 z-score in assay [3] and -0.951 z-score in assay [4].

B12: hsa-mir-516b-1 (structured_RNA)
RNA: GGGCCAAGAACUACCCGGACACCAAAACGGUGUACGAAGUUUCAGCAGCACUUUCUGUUUUGUGAAAGAAAAGAAAGUGCUGCUGAAGCUUCGUGCAC
For B12, the binding signal in assay [1] is 1.07 z-score; in assay [2], -1.04 z-score; in assay [3], -0.372 z-score; in assay [4] it was 0.66 z-score.

B13: hsa-mir-632 (structured_RNA)
RNA: GGGCCGGAUAGACCCGUCUAGAAUGGAAGGUGUACGAAGUUUCAGCGCGGGGAACGAGGCCGUCGGCCAUUUUGUGGCUGAAGCUUCGUGCAC
In the case of B13, the binding signal in assay [1] was 2.46 z-score; in assay [2], 0.371 z-score; in assay [3], -0.64 z-score; in assay [4], 1.01 z-score.

B14: hsa-mir-7515 (structured_RNA)
RNA: GGGACUGCGUGUGGGGCGUAAAUAUACAGGUGUACGAAGUUUCAGCUUUAUGCCUGUUAGCAUGAAAAAAGAGGCUGAGAAGCUGAAGCUUCGUGCAC
As for B14, the binding signal in assay [1] is 1.06 z-score; in assay [2], 0.768 z-score; in assay [3], -1.54 z-score; in assay [4] it was 0.125 z-score.

B15: hsa-mir-324 (structured_RNA)
RNA: GGGAAUUGAAUGGGGUACCUCGCAAGCAGGUGUACGAAGUUUCAGCCAUUGGUGUAAAGCUGGAGACCCACUGGCUGAAGCUUCGUGCAC
In the case of B15, the binding signal in assay [1] is 1.06 z-score; in assay [2], 1.28 z-score; in assay [3] it was 0.106 z-score; in assay [4], 1.85 z-score.

B16: hsa-mir-6850 (structured_RNA)
RNA: GGGAAGUAGUACGAGCCUUGCAUGUGGCGGUGUACGAAGUUUCAGCCGGGGCGGGAGGGGAAGGGACGCCCGGCUGAAGCUUCGUGCAC
Regarding B16, the binding signal was 1.07 z-score in assay [1], 4.58 z-score in assay [3] and 6.24 z-score in assay [4].

B17: hsa-mir-4436b-2_4436b-1 (structured_RNA)
RNA: GGGAAGCGUACGAAGCACUCUCUGCUAGGGUGUACGAAGUUUCAGCCCUGCCCAAAUGGUGGAGCAGAUUCGAGGGGCAGGGCUGAAGCUUCGUGCAC
Take B17: the binding signal in assay [1] turned out to be 1.05 z-score; in assay [2], 0.995 z-score; in assay [3] it was 0.847 z-score; in assay [4], 0.79 z-score.

B18: hsa-mir-24-1 (structured_RNA)
RNA: GGGAACGACACGCCUCAAAUACCGUCGGGGUGUACGAAGUUUCAGCAUCAGUUCUCAUUUUACACACUGGCGCUGAAGCUUCGUGCAC
In the case of B18, the binding signal in assay [1] is 1.05 z-score; in assay [2] it was 1.1 z-score; in assay [3] it was -0.542 z-score; in assay [4], -0.604 z-score.

B19: hsa-mir-603 (structured_RNA)
RNA: GGGAGCGAGAUAGUAGUUUCCGAAAGUUGGUGUACGAAGUUUCAGCCUUCCCAUUUAAAAGUAAUGGCACAGCUGAAGCUUCGUGCAC
Consider B19, for which the binding signal was 1.09 z-score in assay [1], -0.0962 z-score in assay [2], 0.238 z-score in assay [3] and -0.818 z-score in assay [4].

B20: hsa-mir-4701 (structured_RNA)
RNA: GGGAGAAGGCCGCAUAAAAUGUGUACUCGGUGUACGAAGUUUCAGCCCUUGUGAAUGUCGGGCAAUGGGCUGAAGCUUCGUGCAC
Consider B20, for which the binding signal in assay [1] was 1.05 z-score; in assay [2], 0.54 z-score; in assay [3], 0.612 z-score; in assay [4], 0.309 z-score.

B21: NEAT1_ParasoR_ID4 (structured_RNA)
RNA: GGGAACACUCAAGCGGGAUAUAGCACUUGGUGUACGAAGUUUCAGCUUGAUGGGUUGGUUCCACAUCUUUGCAAUUGUGACUUGUACUGCCAUCAAGCUGAAGCUUCGUGCAC
For B21, the binding signal is 1.05 z-score in assay [1], -0.787 z-score in assay [2], -0.802 z-score in assay [3] and -0.072 z-score in assay [4].

B22: hsa-mir-210 (structured_RNA)
RNA: GGGACAAGGAGUAUCGGUUCCAAAAUCCGGUGUACGAAGUUUCAGCACACUGCGCUGCCCCAGACCCACUGUGCUGAAGCUUCGUGCAC
For the molecule B22, the binding signal in assay [1] turned out to be 2.48 z-score; in assay [2], 0.00358 z-score; in assay [3] it was 0.181 z-score; in assay [4], 0.312 z-score.

B23: hsa-mir-6747 (structured_RNA)
RNA: GGGAACGGACGUCCAUUUAAACACGCCGGGUGUACGAAGUUUCAGCAGAACAUUCGUUCACUUUCCUGCUGAAGCUUCGUGCAC
For B23, the binding signal in assay [1] was 1.06 z-score; in assay [2] it was -0.545 z-score; in assay [3], 0.0736 z-score; in assay [4], -0.723 z-score.
